The values below come from ChEMBL document CHEMBL5029165, “Derivatives of montanine-type alkaloids and their implication for the treatment of Alzheimer's disease: Synthesis, biological activity and in silico study” (Bioorg Med Chem Lett, 2021).

By UniProt entry, the sequences of proteins in these tests, tags left out.
UniProt P06276, whole entry: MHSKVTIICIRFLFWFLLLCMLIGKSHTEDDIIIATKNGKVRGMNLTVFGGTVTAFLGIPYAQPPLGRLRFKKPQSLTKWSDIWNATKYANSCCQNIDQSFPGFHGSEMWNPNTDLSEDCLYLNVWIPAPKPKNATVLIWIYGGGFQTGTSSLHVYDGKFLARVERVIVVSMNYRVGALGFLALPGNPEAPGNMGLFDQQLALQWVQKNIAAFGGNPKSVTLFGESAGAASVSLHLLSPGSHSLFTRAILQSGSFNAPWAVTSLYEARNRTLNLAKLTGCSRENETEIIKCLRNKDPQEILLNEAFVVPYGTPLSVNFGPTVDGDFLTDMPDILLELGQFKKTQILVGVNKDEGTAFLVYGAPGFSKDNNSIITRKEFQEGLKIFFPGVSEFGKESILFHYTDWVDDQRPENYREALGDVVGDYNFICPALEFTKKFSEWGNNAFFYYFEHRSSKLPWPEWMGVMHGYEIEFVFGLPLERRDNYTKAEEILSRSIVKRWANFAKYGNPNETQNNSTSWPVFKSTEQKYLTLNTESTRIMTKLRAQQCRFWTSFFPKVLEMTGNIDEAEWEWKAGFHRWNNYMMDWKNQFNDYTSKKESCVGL

The target in the assay is Cholinesterase (Homo sapiens, UniProt P06276). The assay is described as follows: Inhibition of human BuChE at 100 uM using butyrylthiocholine chloride as substrate by Ellman's method. For orientation: DTNB colorimetry detects thiols as they appear.

As for `CNC(=O)Oc1ccc2c(c1)[C@]1(C)CCN(C)[C@@H]1N2C`, the inhibition (commonly the percentage by which the read-out fell short of the control) came to 99.9%.
